Values quoted from earlier work as cited in patent US20240377385A1, “METHODS AND COMPOSITIONS OF MATTER FOR TREATING CANCER AND PREDICTING RESPONSE TO THERAPY” (ICCA INC., priority 2023, published 2024).

Details: cited from earlier work

Substance: interleukin 2
- Mean plasma ascorbic acid levels (after the first phase of treatment with high-dose interleukin 2 alone, 11 patients): 0.13 ± 0.08 mg/dL
- drop of mean plasma ascorbic acid levels (after the first phase of treatment with high-dose interleukin 2 alone): 80%
- plasma ascorbic acid levels, undetectable (in eight of 11 patients during the remainder of the treatment): less than 0.05 mg/dl
- plasma ascorbic acid levels (throughout the remainder of the treatment (interleukin 2 plus lymphokine-activated killer cells)): 0.08 to 0.13 mg/dL
